We go through 1 molecule from ChEMBL document CHEMBL1151785, “Oleanolic acid and its derivatives: new inhibitor of protein tyrosine phosphatase 1B with cellular activities” (Bioorg Med Chem, 2008).

Structures are written as SMILES.

The experiment concerns the target T1, Tyrosine-protein phosphatase non-receptor type 1 (Homo sapiens, UniProt P18031).
T1 sequence (P18031 whole entry): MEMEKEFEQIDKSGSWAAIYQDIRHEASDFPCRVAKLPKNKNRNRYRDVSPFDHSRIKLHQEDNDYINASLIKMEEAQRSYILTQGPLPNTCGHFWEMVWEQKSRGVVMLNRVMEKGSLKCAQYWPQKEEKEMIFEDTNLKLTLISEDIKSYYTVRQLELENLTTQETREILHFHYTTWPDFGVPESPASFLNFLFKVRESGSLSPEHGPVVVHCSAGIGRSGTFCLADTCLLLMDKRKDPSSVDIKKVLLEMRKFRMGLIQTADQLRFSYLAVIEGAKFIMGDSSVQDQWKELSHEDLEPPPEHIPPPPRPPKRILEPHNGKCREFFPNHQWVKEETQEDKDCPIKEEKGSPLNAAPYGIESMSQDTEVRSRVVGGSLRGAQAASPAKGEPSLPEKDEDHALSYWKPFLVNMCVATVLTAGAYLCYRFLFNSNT
The experiment is described as follows: Inhibition of PTP1B by pNPP assay.

The IC50 is the concentration that gives 50% inhibition. The low end stands for higher potency, the high end for lower potency. Molecule `CC1(C)[C@@H](O)CC[C@]2(C)[C@H]3C(=O)C=C4[C@@H]5C[C@@](C)(C(=O)O)CC[C@]5(C)CC[C@@]4(C)[C@]3(C)CC[C@@H]12` [ENOXOLONE] had an IC50 greater than 20 µM.
